According to ChEMBL document CHEMBL1140788, “Development of CXCR3 antagonists. Part 3: Tropenyl and homotropenyl-piperidine urea derivatives” (Bioorg Med Chem Lett, 2008):

What was measured:
[1] = Selectivity for human CXCR3 over muscarinic M1 receptor
[2] = Selectivity for human CXCR3 over muscarinic M2 receptor
[3] = Selectivity for human CXCR3 over muscarinic M3 receptor
[4] = Selectivity for human CXCR3 over 5HT1A receptor
[5] = Selectivity for human CXCR3 over sodium channel
[6] = Selectivity for human CXCR3 over 5HT5A receptor

## CC(=O)N1C2C=C(CN3C4CCC3CC(NC(=O)Nc3cc(F)cc(C(F)(F)F)c3)C4)CC1CCC2 (stereo unspecified)
[1]
  Ratio Ki: 33
[2]
  Ratio Ki: 40
[3]
  Ratio Ki: 170
[4]
  Ratio Ki: 40
[5]
  Ratio Ki: 81
[6]
  Ratio Ki: 430
